According to patent publication US9968583B2, “Method of manufacture of liposome composition” (EISAI R & D MANAGEMENT CO., LTD., priority 2009, dated 2018):
Counter-ions that a name gives are not always drawn.

Test: Eribulin mesylate blood plasma and tumor tissue PK in LOX cancer-bearing mice (Embodiment 11)
Type: in vivo
Settings: female, NU/NU nude, mouse, intravenous, tumor tissue, 1.0 mg/kg into caudal vein, read-out: TPI (mL/g)
Experimental: A blood sample was taken and tumor tissue extraction was carried out with a cardiac puncture at fixed periods after administration (15 minutes, 30 minutes, 1, 2, 4, 8, 12, 24, 36, and 48 hours) (n=3). The blood was sampled in a test tube containing heparin, and within 30 minutes of the sampling, the blood was separated by centrifuging at 1,500×g for 10 minutes at 4° C. to obtain the blood plasma. All of the tumor tissue was extracted, washed with PBS, and wiped with water-absorbent paper, and then the tissue weight was immediately weighed. The tissue was placed in a test tube and cooled in ice water, and then stored at −80° C. until analysis was carried out.
The PK parameters were calculated using non-compartment model analysis software (WinNonlin version 5.0.1).

Q: Which Kp does the source give for `C=C1C[C@@H]2CC[C@@]34C[C@H]5O[C@H]6[C@@H](O3)[C@H]3O[C@H](CC[C@@H]3O[C@H]6[C@H]5O4)CC(=O)C[C@@H]3[C@@H](OC)[C@@H](C[C@H](O)CN)O[C@H]3C[C@H]3O[C@@H](CC[C@@H]1O2)C[C@@H](C)C3=C` [eribulin mesylate] here?
A: 17.2
